# Tests used:
# HIF-1α [1] = assay: IHC and image analysis of HIF-1α in HT1080 cells (DFO, PX-478 dose escalation); assay type: cell-based, human; settings: DFO + 25, 50, 75 μM PX-478
# HIF-1α [2] = assay: Western blot and densitometry of HIF-1α in HT1080 cells; settings: DFO + 25, 50, 75 μM PX-478
# pS6 = assay: IHC of pS6 in HT1080 cells treated with DFO and HIF-1α inhibitor; settings: DFO + increasing HIF-1α inhibitor (FIG. 7B)
# pMEK = assay: IHC of pMEK in HT1080 cells treated with DFO and HIF-1α inhibitor
# pAKT = assay: IHC of pAKT in HT1080 cells treated with DFO and HIF-1α inhibitor; settings: DFO + increasing HIF-1α inhibitor (FIG. 7B)
# pERK = assay: IHC of pERK in HT1080 cells treated with DFO and HIF-1α inhibitor
# [3] = DFO + increasing HIF-1α inhibitor (FIG. 7B)
compound,measurement,setting,value
N[C@@H](Cc1ccc([N+]([O-])(CCCl)CCCl)cc1)C(=O)O,"HIF-1α expression in response to DFO-induced hypoxia (IHC, image analysis)",HIF-1α [1],concentration-dependent decrease
same,"levels of HIF-1α (Western blot, densitometry)",HIF-1α [2],decrease in levels of HIF-1α
same,pS6 expression (IHC),pS6,not altered
same,pMEK staining (IHC),"pMEK; DFO + 25, 50, 75 μM PX-478",increased pMEK staining
same,level of expression inhibition of pMEK in response to hypoxia,pMEK; [3],reduced
same,pMEK combined score ((% positive)×(optical density score)),pMEK; DFO + increasing concentrations of HIF-1α inhibitor (FIG. 7C),increase
same,pAKT expression (IHC),pAKT,not altered
same,level of expression inhibition of pERK in response to hypoxia,pERK; [3],reduced
same,pERK (marker of the EGF pathway) expression,pERK; DFO + increasing concentrations of HIF-1α inhibitor,increased
